# Experimental data: patent US20070105759A1 (priority 2003, published 2007)
# Amino acid sequences for entries named in this document (tags omitted).
# UniProt P32245, whole entry: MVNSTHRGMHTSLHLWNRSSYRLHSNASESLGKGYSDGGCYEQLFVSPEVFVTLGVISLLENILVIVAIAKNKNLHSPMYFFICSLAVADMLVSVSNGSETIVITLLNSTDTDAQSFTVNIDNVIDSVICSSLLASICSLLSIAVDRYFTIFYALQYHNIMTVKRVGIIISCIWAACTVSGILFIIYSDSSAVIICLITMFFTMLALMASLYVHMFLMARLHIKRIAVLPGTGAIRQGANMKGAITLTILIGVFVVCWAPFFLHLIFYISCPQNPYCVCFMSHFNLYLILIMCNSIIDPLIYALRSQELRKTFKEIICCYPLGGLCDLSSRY
# Target: MC4 (Homo sapiens, UniProt P32245)
# Settings: read-out: MC4 Ki
row,SMILES,Ki [nM]
1,"CC1(C)SSCC[C@H](NS(=O)(=O)c2ccccc2)C(=O)N[C@@H](Cc2c[nH]cn2)C(=O)N[C@H](Cc2ccccc2)C(=O)N[C@@H](CCCNC(=N)N)C(=O)N[C@@H](Cc2c[nH]c3ccccc23)C(=O)N[C@@H]1C(N)=O [Compound No. 175, N-phenylsulfonyl-cyclo[hCys-His-D-Phe-Arg-Trp-penicillamine]-NH2]",1.29
2,"N=C(N)NCCC[C@H](NC(=O)[C@@H](N)Cc1ccc(O)cc1)C(=O)N[C@H]1CSSC[C@@H](C(N)=O)NC(=O)[C@H](Cc2c[nH]c3ccccc23)NC(=O)[C@H](CCCNC(=N)N)NC(=O)[C@@H](Cc2ccccc2)NC(=O)[C@H](Cc2c[nH]cn2)NC(=O)CNC1=O [Compound No. 11, Tyr-Arg-cyclo[Cys-Gly-His-D-Phe-Arg-Trp-Cys]-NH2]",1.26
3,"CC(=O)N[C@@H](Cc1ccc(O)cc1)C(=O)N[C@@H](CCCNC(=N)N)C(=O)N[C@H]1CSSC[C@@H](C(N)=O)NC(=O)[C@H](Cc2c[nH]c3ccccc23)NC(=O)[C@H](CCCNC(=N)N)NC(=O)[C@@H](Cc2ccccc2)NC(=O)[C@H](Cc2c[nH]cn2)NC(=O)[C@H](Cc2ccccc2)NC1=O [Compound No. 19, Ac-Tyr-Arg-cyclo[Cys-Phe-His-D-Phe-Arg-Trp-Cys]-NH2]",0.53
4,"CC(=O)N[C@@H](Cc1ccc(O)cc1)C(=O)N[C@@H](CCCCN)C(=O)N[C@H]1CSSC[C@@H](C(N)=O)NC(=O)[C@H](Cc2c[nH]c3ccccc23)NC(=O)[C@H](CCCNC(=N)N)NC(=O)[C@@H](Cc2ccccc2)NC(=O)[C@H](Cc2c[nH]cn2)NC(=O)[C@H](CCC(=O)O)NC1=O [Compound No. 128, Ac-Tyr-Lys-cyclo[Cys-Glu-His-D-Phe-Arg-Trp-Cys]-NH2]",0.89
5,"CC(=O)N[C@H]1CSSCC[C@@H](C(N)=O)NC(=O)[C@H](Cc2c[nH]c3ccccc23)NC(=O)[C@H](CCCNC(=N)N)NC(=O)[C@@H](Cc2ccccc2)NC(=O)[C@H](Cc2c[nH]cn2)NC1=O [Compound No. 183, Ac-cyclo[Cys-His-D-Phe-Arg-Trp-hCys]-NH2]",9.37
6,"CC(=O)N[C@@H](Cc1ccc(O)cc1)C(=O)N[C@@H](CCCNC(=N)N)C(=O)N[C@H]1CSSC[C@@H](C(N)=O)NC(=O)[C@H](Cc2c[nH]c3ccccc23)NC(=O)[C@H](CCCNC(=N)N)NC(=O)[C@@H](Cc2ccccc2)NC(=O)[C@H](Cc2ccncc2)NC(=O)[C@H](CCC(=O)O)NC1=O [Compound No. 113, Ac-Tyr-Arg-cyclo[Cys-Glu-(β-(pyridin-4-yl)-Ala)-D-Phe-Arg-Trp-Cys]-NH2]",37
7,"CC(=O)N[C@@H](Cc1ccc(O)cc1)C(=O)N[C@@H](CCCNC(=N)N)C(=O)N[C@H]1CSSC[C@@H](C(N)=O)NC(=O)[C@H](Cc2c[nH]c3ccccc23)NC(=O)[C@H](CCCNC(=N)N)NC(=O)[C@@H](Cc2ccccc2)NC(=O)[C@H](Cc2nc(-c3ccccc3)c[nH]2)NC(=O)[C@H](CCC(=O)O)NC1=O [Compound No. 103, Ac-Tyr-Arg-cyclo[Cys-Glu-(4-phenyl-1H-imidazol-2-yl-Ala)-D-Phe-Arg-Trp-Cys]-NH2]",6.62
8,"N=C(N)NCCC[C@@H]1NC(=O)[C@@H](Cc2ccc(Cl)cc2)NC(=O)[C@H](Cc2c[nH]cn2)NC(=O)[C@@H](N)CCSSC[C@@H](C(N)=O)NC(=O)[C@H](Cc2c[nH]c3ccccc23)NC1=O [Compound No. 135, cyclo[hCys-His-(4-Cl-D-Phe)-Arg-Trp-Cys]-NH2]",0.06
9,CC(=O)N[C@@H](Cc1ccc(O)cc1)C(=O)N[C@@H](CCCNC(=N)N)C(=O)N[C@H]1CSSC[C@@H](C(N)=O)NC(=O)[C@H](Cc2c[nH]c3ccccc23)NC(=O)[C@H](CCCNC(=N)N)NC(=O)[C@@H](Cc2ccccc2)NC(=O)[C@H](Cc2nc[nH]n2)NC(=O)[C@H](CCC(=O)O)NC1=O [Compound No. 106],20.9
10,"CC(=O)N[C@H]1CCSSC[C@@H](C(N)=O)NC(=O)[C@H](Cc2c[nH]c3ccccc23)NC(=O)[C@H](CCCNC(=N)N)NC(=O)[C@@H](Cc2ccc(F)cc2)NC(=O)[C@H](Cc2c[nH]cn2)NC1=O [Compound No. 139, Ac-cyclo[hCys-His-(4-F-D-Phe)-Arg-Trp-Cys]-NH2]",0.38
11,"Cn1cnc(C[C@@H]2NC(=O)[C@@H](NC(=O)[C@@H](N)CCCNC(=N)N)CCSSC[C@@H](C(N)=O)NC(=O)[C@H](Cc3c[nH]c4ccccc34)NC(=O)[C@H](CCCNC(=N)N)NC(=O)[C@@H](Cc3ccccc3)NC2=O)c1 [Compound No. 156, Arg-cyclo[hCys-(1-Me-His)-D-Phe-Arg-Trp-Cys]-NH2]",1.31
12,"CC(=O)N[C@@H](Cc1ccc(O)cc1)C(=O)N[C@@H](CCCNC(=N)N)C(=O)N[C@H]1CSSC[C@@H](C(N)=O)NC(=O)[C@H](Cc2c[nH]c3ccccc23)NC(=O)[C@H](CCCNC(=N)N)NC(=O)[C@@H](Cc2ccccc2)NC(=O)[C@H](Cc2cccs2)NC(=O)[C@H](CCC(=O)O)NC1=O [Compound No. 111, Ac-Tyr-Arg-cyclo[Cys-Glu-(β-(thien-2-yl)-Ala)-D-Phe-Arg-Trp-Cys]-NH2]",65.2
13,"CC(=O)N[C@@H](Cc1ccc(O)cc1)C(=O)N[C@@H](CCCNC(=N)N)C(=O)N[C@H]1CSSC[C@@H](C(N)=O)NC(=O)[C@H](Cc2c[nH]c3ccccc23)NC(=O)[C@H](CCCNC(=N)N)NC(=O)[C@@H](Cc2ccccc2)NC(=O)[C@H](Cc2c[nH]cn2)NC(=O)[C@H](CO)NC1=O [Compound No. 21, Ac-Tyr-Arg-cyclo[Cys-Ser-His-D-Phe-Arg-Trp-Cys]-NH2]",0.22
14,"N=C(N)NCCC[C@H](NC(=O)CCc1ccc(O)cc1)C(=O)N[C@H]1CSSC[C@@H](C(N)=O)NC(=O)[C@H](Cc2c[nH]c3ccccc23)NC(=O)[C@H](CCCNC(=N)N)NC(=O)[C@@H](Cc2ccccc2)NC(=O)[C@H](Cc2c[nH]cn2)NC(=O)[C@H](CCC(=O)O)NC1=O [Compound No. 66, 3-(4-hydroxyphenyl)propionyl-Arg-cyclo[Cys-Glu-His-D-Phe-Arg-Trp-Cys]-NH2]",0.83
15,"CC(=O)N[C@@H](Cc1ccc(O)cc1)C(=O)N[C@@H](CCCNC(=N)N)C(=O)N[C@H]1CSSC[C@@H](C(=O)NCCCCCCN)NC(=O)[C@H](Cc2c[nH]c3ccccc23)NC(=O)[C@H](CCCNC(=N)N)NC(=O)[C@@H](Cc2ccccc2)NC(=O)[C@H](Cc2c[nH]cn2)NC(=O)[C@H](CCC(=O)O)NC1=O [Compound No. 117, Ac-Tyr-Arg-cyclo[Cys-Glu-His-D-Phe-Arg-Trp-Cys]-NH-(CH2)6-NH2]",0.63
16,"CCCCCC(=O)N[C@H]1CCSSC[C@@H](C(N)=O)NC(=O)[C@H](Cc2c[nH]c3ccccc23)NC(=O)[C@H](CCCNC(=N)N)NC(=O)[C@@H](Cc2ccccc2)NC(=O)[C@H](Cc2c[nH]cn2)NC1=O [Compound No. 145, N-hexanoyl-cyclo[hCys-His-D-Phe-Arg-Trp-Cys]-NH2]",0.73
17,"CC(=O)N[C@@H](Cc1ccc(O)cc1)C(=O)N[C@@H](CCCNC(=N)N)C(=O)N[C@H]1CCSSCC[C@@H](C(N)=O)NC(=O)[C@H](Cc2c[nH]c3ccccc23)NC(=O)[C@H](CCCNC(=N)N)NC(=O)[C@@H](Cc2ccccc2)NC(=O)[C@H](Cc2c[nH]cn2)NC1=O [Compound No. 196, Ac-Tyr-Arg-cyclo[hCys-His-D-Phe-Arg-Trp-hCys]-NH2]",2.1
18,"CC(=O)N[C@H]1CCSSC(C)(C)[C@@H](C(N)=O)NC(=O)[C@H](Cc2c[nH]c3ccccc23)NC(=O)[C@H](CCCNC(=N)N)NC(=O)[C@@H](Cc2ccccc2)NC(=O)[C@H](Cc2c[nH]cn2)NC1=O [Compound No. 168, Ac-cyclo[hCys-His-D-Phe-Arg-Trp-penicillamine]-NH2]",1.35
19,"CC(=O)N[C@H]1CSSC[C@@H](C(N)=O)NC(=O)[C@H](Cc2c[nH]c3ccccc23)NC(=O)[C@H](CCCNC(=N)N)NC(=O)[C@@H](Cc2ccccc2)NC(=O)[C@H](Cc2c[nH]cn2)NC(=O)[C@H](CC(=O)O)NC1=O [Compound No. 6, Ac-cyclo[Cys-Asp-His-D-Phe-Arg-Trp-Cys]-NH2]",2.15
20,"CC(=O)N[C@@H](Cc1ccc(O)cc1)C(=O)N[C@@H](CCCNC(=N)N)C(=O)N[C@H]1CSSC[C@@H](C(=O)O)NC(=O)[C@H](Cc2c[nH]c3ccccc23)NC(=O)[C@H](CCCNC(=N)N)NC(=O)[C@@H](Cc2ccccc2)NC(=O)[C@H](Cc2c[nH]cn2)NC(=O)[C@H](CCC(N)=O)NC1=O [Compound No. 9, Ac-Tyr-Arg-cyclo[Cys-Gln-His-D-Phe-Arg-Trp-Cys]-OH]",2.39
21,"CC(=O)N[C@@H](CCCNC(=N)N)C(=O)N[C@H]1CSSCC[C@@H](C(N)=O)NC(=O)[C@H](Cc2c[nH]c3ccccc23)NC(=O)[C@H](CCCNC(=N)N)NC(=O)[C@@H](Cc2ccc(F)cc2)NC(=O)[C@H](Cc2c[nH]cn2)NC1=O [Compound No. 190, Ac-Arg-cyclo[Cys-His-(4-F-D-Phe)-Arg-Trp-hCys]-NH2]",0.17
22,"N=C(N)NCCC[C@@H]1NC(=O)[C@@H](Cc2ccccc2)NC(=O)[C@H](Cc2c[nH]cn2)NC(=O)[C@@H](NC(=O)[C@@H](N)CCCNC(=N)N)CCSSC[C@@H](C(N)=O)NC(=O)[C@H](Cc2c[nH]c3ccccc23)NC1=O [Compound No. 153, Arg-cyclo[hCys-His-D-Phe-Arg-Trp-Cys]-NH2]",0.1
23,"CC(=O)N[C@H]1CSSC[C@@H](C(N)=O)NC(=O)[C@H](Cc2c[nH]c3ccccc23)NC(=O)[C@H](CCCNC(=N)N)NC(=O)[C@@H](Cc2ccccc2)NC(=O)[C@H](Cc2c[nH]cn2)NC1=O [Compound No. 1, Ac-cyclo[Cys-His-D-Phe-Arg-Trp-Cys]-NH2]",128
24,"N=C(N)NCCC[C@@H]1NC(=O)[C@@H](Cc2ccccc2)NC(=O)[C@H](Cc2c[nH]cn2)NC(=O)[C@@H](NC(=O)CCC(=O)NS(=O)(=O)c2ccccc2)CCSSC[C@@H](C(N)=O)NC(=O)[C@H](Cc2c[nH]c3ccccc23)NC1=O [Compound No. 152, N-(4-phenylsulfonamido-4-oxo-butyryl)-cyclo[hCys-His-D-Phe-Arg-Trp-Cys]-NH2]",1.77
25,"CC(=O)N[C@H](CCCNC(=N)N)C(=O)N[C@H]1CSSC[C@@H](C(N)=O)NC(=O)[C@H](Cc2c[nH]c3ccccc23)NC(=O)[C@H](CCCNC(=N)N)NC(=O)[C@H](Cc2ccccc2)NC(=O)[C@H](Cc2c[nH]cn2)NC(=O)[C@H](CCC(=O)O)NC1=O [Compound No. 47, Ac-D-Arg-cyclo[Cys-Glu-His-Phe-Arg-Trp-Cys]-NH2]",53.3
26,"CC(=O)N[C@@H](CCCCN)C(=O)N[C@H]1CSSC[C@@H](C(N)=O)NC(=O)[C@H](Cc2c[nH]c3ccccc23)NC(=O)[C@H](CCCNC(=N)N)NC(=O)[C@@H](Cc2ccccc2)NC(=O)[C@H](Cc2c[nH]cn2)NC(=O)[C@H](CCC(=O)O)NC1=O [Compound No. 58, Ac-Lys-cyclo[Cys-Glu-His-D-Phe-Arg-Trp-Cys]-NH2]",0.81
